For this data set the following is noted: for time the solution remains clear: aqueous solution at r.t.; for kinetic solubility in water: purified/de-ionized water, room temperature, agitated (briefly sonicated), not assay corrected; for time until a clear solution is obtained: weighed solid plus water, agitated at room temperature. How it is done:
The measurement of the kinetic solubility was conducted as described in the experimental part.
0.5 ml of purified/de-ionized water (for instance water for chromatography) is added.
2.535 ml of purified/de-ionized water (for instance water for chromatography) is added to the solid using an adjustable volumetric pipette. The mixture is vigorously agitated at room temperature and briefly sonicated.
Then 0.785 ml of purified/de-ionized water is added.
Then 1.0 ml of purified/de-ionized water is added.

As for “Crystalline Sodium Salt of 5-methyl-(6S)-tetrahydrofolic Acid Comprising 1-(2-hydroxyethyl)-pyrrolidine [Example 6]”, the “time the solution remains clear” value is “several hours”, the “kinetic solubility in water” value was “greater than 100 mg per 1 ml of water” and the “time until a clear solution is obtained” value was “within a few seconds”.

On to “Crystalline Sodium Salt of 5-methyl-(6S)-tetrahydrofolic Acid Comprising 2-dimethylaminoethanol [Example 8]”, for which the “time the solution remains clear” value is on record as “several hours”, the “kinetic solubility in water” value was “greater than 55 mg per 1 ml of water” and the “time until a clear solution is obtained” value is “within a few seconds”.

For “Crystalline Sodium Salt of 5-methyl-(6S)-tetrahydrofolic Acid and Comprising 4-(2-hydroxy-ethyl)-morpholine [Example 1]”, the “time the solution remains clear” value is recorded as “several hours”, the “kinetic solubility in water” value was “greater than 54 mg per 1 ml of water” and the “time until a clear solution is obtained” value was “within a few seconds”.
